# Values of other authors as cited in publication PMC4642336.
# Target: NusG CTD (Escherichia coli) (UniProt P0AFG0)
substance,measurement,value
NusE (from UniProt P0A7R5),Kd,50 µM
